Measured values reported in article PMC7811517, “Human neuronal signaling and communication assays to assess functional neurotoxicity” (Archives of Toxicology, 2020).

Protein sequences, listed by entry. Tags and fused reporters are not part of them.
UniProt Q01959, whole entry: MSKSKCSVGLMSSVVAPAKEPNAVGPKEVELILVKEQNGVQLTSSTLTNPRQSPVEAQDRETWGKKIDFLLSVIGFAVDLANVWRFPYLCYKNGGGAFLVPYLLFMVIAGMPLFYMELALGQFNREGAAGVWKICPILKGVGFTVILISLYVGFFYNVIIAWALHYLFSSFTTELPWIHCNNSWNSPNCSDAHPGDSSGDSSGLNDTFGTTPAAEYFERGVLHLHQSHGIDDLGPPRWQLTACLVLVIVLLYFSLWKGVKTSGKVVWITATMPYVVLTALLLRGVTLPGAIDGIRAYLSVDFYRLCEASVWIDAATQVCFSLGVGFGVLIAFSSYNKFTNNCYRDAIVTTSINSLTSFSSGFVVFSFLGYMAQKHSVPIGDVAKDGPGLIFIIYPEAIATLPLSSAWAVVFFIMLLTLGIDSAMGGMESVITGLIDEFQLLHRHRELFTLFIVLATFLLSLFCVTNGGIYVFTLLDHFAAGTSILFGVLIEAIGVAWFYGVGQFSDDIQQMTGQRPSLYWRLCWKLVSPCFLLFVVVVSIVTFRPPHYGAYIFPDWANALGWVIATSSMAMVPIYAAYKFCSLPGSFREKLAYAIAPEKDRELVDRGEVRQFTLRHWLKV

Target: dopamine transporter (DAT) (Homo sapiens, UniProt Q01959)
Format: cell-based

c1ccc(CCCN2CCN(CCOC(c3ccccc3)c3ccccc3)CC2)cc1 [GBR12935]
effect on uptake of [3H]DA: inhibited; also recorded: significantly reduced

“Also recorded” adds a separate entry of the source.
